According to ChEMBL document CHEMBL1151888, “Synthesis, initial SAR and biological evaluation of 1,6-dihydroimidazo[4,5-d]pyrrolo[2,3-b]pyridin-4-amine derived inhibitors of IkappaB kinase” (Bioorg Med Chem Lett, 2009):
pIC50: −log10 of the molar value.

Experiment: Inhibition of IKK1-catalyzed phosphorylation of GST-tagged IkappaBalpha fusion protein by fluorescence polarization assay

pIC50 (read-out: IC50)	pIC50	SMILES
7.60	–	CNc1nc2[nH]c(-c3cccc(CNC(=O)CO)c3)cc2c2c1ncn2C
–	7.96	CNc1nc2[nH]c(-c3cccc(CN)c3)cc2c2c1ncn2C
